Laboratory results reported in patent US20210238229A1, “PEPTIDE FOR DISEASE TREATMENT” (UNIVERSITY COLLEGE CORK - NATIONAL UNIVERSITY OF IRELAND, …, priority 2018, published 2021).

Biological target: T1, AT2 receptor (Homo sapiens, UniProt P50052)
T1 construct: expressed in transfected cells; host or cells: HEK-293, transient transfection with PolyFect
T1 sequence (P50052 1-363): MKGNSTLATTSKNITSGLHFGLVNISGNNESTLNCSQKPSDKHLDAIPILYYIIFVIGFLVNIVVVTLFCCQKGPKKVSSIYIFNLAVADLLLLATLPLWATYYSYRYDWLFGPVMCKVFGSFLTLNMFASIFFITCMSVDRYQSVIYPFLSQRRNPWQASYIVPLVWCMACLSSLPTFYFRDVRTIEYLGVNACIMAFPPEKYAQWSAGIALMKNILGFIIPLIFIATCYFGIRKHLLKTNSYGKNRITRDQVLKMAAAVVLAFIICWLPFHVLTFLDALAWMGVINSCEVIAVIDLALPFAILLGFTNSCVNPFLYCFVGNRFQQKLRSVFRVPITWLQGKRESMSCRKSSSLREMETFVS
Assay: cAMP in AT2-transfected HEK293 cells
Format: cell-based
Conditions: PTX and SQ-22536 inhibitor experiments
Experimental: Human embryonic kidney (HEK-293) cells were cultured in DMEM medium supplemented with FBS (10%), HEPES buffer (1%), sodium pyruvate (1%), and L-glutamine (1%) and maintained under standard conditions (5% CO2, 95% humidity and 37° C.). Cells were cultured in 100 mm cell culture dishes and seeded in 48-well plates at a density of 75,000 cells per well. The next day, HEK-293 cells were transfected using a transient transfection procedure following the manufacturer's instructions. […] The protein concentration was determined using Pierce BCA Protein Assay Kit according to the manufacturer's protocol (Thermo Fisher Scientific, Waltham, Mass., USA).
cAMP concentration in cell lysates was determined using Direct cAMP ELISA kit (Enzo Life Sciences Ltd., Exeter, United Kingdom). […] The enzymatic reaction was stopped by adding 50 μl of Stop Solution, and the absorbance at 405 nm was measured immediately. The cAMP concentration was determined from non-linear standard curve using GraphPad Prism 6.0 software.
AT2-transfected HEK293 cells were stimulated for 15 min with a range of concentrations (10^−14 to 10^−5 M) of C21, Ang II or PBS and the concentration of cAMP was measured in accordance with the methodology provided. […]

Angiotensin II [Ang II, reference compound]
G-protein activation via the AT2 receptor: cannot activate G-proteins via the receptor
